Results on one molecule are retold here after article PMC10866054 (Journal of Enzyme Inhibition and Medicinal Chemistry, 2024).

Chains of the proteins cited; added tags and fusions are not shown. Lines headed by an entry give the natural chain unless they say otherwise; changes in a name come on top.
UniProt P48736: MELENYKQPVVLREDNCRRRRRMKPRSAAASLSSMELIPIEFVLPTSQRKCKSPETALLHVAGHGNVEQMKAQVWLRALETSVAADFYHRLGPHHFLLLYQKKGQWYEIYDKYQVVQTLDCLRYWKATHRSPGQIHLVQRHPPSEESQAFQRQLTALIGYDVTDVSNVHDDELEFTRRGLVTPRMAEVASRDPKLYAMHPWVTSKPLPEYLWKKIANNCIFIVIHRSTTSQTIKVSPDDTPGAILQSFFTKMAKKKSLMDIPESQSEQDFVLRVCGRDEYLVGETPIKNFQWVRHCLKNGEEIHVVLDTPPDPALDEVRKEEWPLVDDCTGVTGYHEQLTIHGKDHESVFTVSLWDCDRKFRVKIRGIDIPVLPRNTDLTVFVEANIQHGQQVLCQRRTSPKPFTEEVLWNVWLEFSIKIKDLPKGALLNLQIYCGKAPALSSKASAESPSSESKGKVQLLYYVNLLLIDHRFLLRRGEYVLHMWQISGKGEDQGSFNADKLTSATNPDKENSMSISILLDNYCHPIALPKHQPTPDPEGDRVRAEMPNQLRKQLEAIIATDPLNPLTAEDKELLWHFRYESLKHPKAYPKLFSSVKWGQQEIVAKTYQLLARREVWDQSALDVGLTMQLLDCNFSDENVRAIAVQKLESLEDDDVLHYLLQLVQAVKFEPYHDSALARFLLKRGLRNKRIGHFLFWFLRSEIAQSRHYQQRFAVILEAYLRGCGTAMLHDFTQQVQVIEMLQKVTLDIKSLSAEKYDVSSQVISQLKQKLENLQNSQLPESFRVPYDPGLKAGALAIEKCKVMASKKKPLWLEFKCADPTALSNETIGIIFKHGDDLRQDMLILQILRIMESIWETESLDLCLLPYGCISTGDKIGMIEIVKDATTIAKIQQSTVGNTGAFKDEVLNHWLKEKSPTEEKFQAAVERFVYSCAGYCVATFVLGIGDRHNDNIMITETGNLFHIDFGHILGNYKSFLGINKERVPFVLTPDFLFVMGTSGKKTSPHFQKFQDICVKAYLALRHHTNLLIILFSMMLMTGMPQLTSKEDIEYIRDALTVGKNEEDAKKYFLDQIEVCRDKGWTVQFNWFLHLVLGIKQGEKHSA

For orientation: IC50 means the concentration that gives 50% inhibition. A higher IC50 goes with lower potency.

Structures are written as SMILES.

This experiment deals with PI3Kγ (Homo sapiens, UniProt P48736). Put plainly: PI3K isoform ELISA kit, PI3Kγ. The experiment is classed as biochemical. On the technique in general: In an ELISA, binding on a coated surface is turned into a signal by an enzyme label.

For the molecule `O=c1cc(N2CCOCC2)oc2c(-c3ccccc3)cccc12` [LY294002, reference compound], the IC50 is 6.76 ± 0.55 µM.
